PubChem BioAssay (NCI)
Some tests of the compounds listed are not included; inactive here does not mean inactive elsewhere.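 Cells were grown in 96-well plates and exposed to each compound for 48 hours at five concentrations; endpoints were interpolated linearly between bracketing concentrations, or set to the highest concentration if not reached. GI50: concentration for 50% inhibition of growth. The concentration for full growth arrest is given as TGI.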

Columns and labels:
Assay in all cases: inhibition of tumour cell growth, NCI panel, 48 h
NCI-H522 lung = tested on: NCI-H522 lung
NCI/ADR-RES ovarian = tested on: NCI/ADR-RES ovarian
786-0 renal = tested on: 786-0 renal
A498 renal = tested on: A498 renal
RXF 393 renal = tested on: RXF 393 renal
U251 CNS = tested on: U251 CNS
OVCAR-8 ovarian = tested on: OVCAR-8 ovarian
HL-60(TB) leukemia = tested on: HL-60(TB) leukemia
SN12C renal = tested on: SN12C renal
HCC-2998 colon = tested on: HCC-2998 colon
MOLT-4 leukemia = tested on: MOLT-4 leukemia
PC-3 prostate = tested on: PC-3 prostate
OVCAR-5 ovarian = tested on: OVCAR-5 ovarian
UACC-62 melanoma = tested on: UACC-62 melanoma
K-562 leukemia = tested on: K-562 leukemia
HOP-62 NSCLC = tested on: HOP-62 NSCLC
SNB-75 CNS = tested on: SNB-75 CNS
UO-31 renal = tested on: UO-31 renal
DU-145 prostate = tested on: DU-145 prostate
T-47D breast = tested on: T-47D breast
OVCAR-4 ovarian = tested on: OVCAR-4 ovarian
SK-MEL-28 melanoma = tested on: SK-MEL-28 melanoma
TK-10 renal = tested on: TK-10 renal
HT29 colon = tested on: HT29 colon
CAKI-1 renal = tested on: CAKI-1 renal
HCT-15 colon = tested on: HCT-15 colon
SF-268 CNS = tested on: SF-268 CNS
M14 melanoma = tested on: M14 melanoma

C=C(C)C#CC(O)(C(=O)OC1CN2CCC1CC2)C1CCCCC1 (stereo unspecified)
GI50 (NCI-H522 lung): > 100 µM
TGI (NCI-H522 lung): > 100 µM
GI50 (NCI/ADR-RES ovarian): > 100 µM
TGI (NCI/ADR-RES ovarian): > 100 µM
GI50 (786-0 renal): > 100 µM
TGI (786-0 renal): > 100 µM
GI50 (A498 renal): > 100 µM
TGI (A498 renal): > 100 µM
GI50 (RXF 393 renal): 87.6 µM
TGI (RXF 393 renal): > 100 µM
GI50 (U251 CNS): > 100 µM
TGI (U251 CNS): > 100 µM
GI50 (OVCAR-8 ovarian): > 100 µM
TGI (OVCAR-8 ovarian): > 100 µM
GI50 (HL-60(TB) leukemia): > 100 µM
TGI (HL-60(TB) leukemia): > 100 µM
GI50 (SN12C renal): > 100 µM
TGI (SN12C renal): > 100 µM
GI50 (HCC-2998 colon): > 100 µM
TGI (HCC-2998 colon): > 100 µM
GI50 (MOLT-4 leukemia): > 100 µM
TGI (MOLT-4 leukemia): > 100 µM
GI50 (PC-3 prostate): > 100 µM
TGI (PC-3 prostate): > 100 µM
GI50 (OVCAR-5 ovarian): > 100 µM
TGI (OVCAR-5 ovarian): > 100 µM
GI50 (UACC-62 melanoma): > 100 µM
TGI (UACC-62 melanoma): > 100 µM
GI50 (K-562 leukemia): > 100 µM
TGI (K-562 leukemia): > 100 µM
GI50 (HOP-62 NSCLC): > 100 µM
TGI (HOP-62 NSCLC): > 100 µM
GI50 (SNB-75 CNS): > 100 µM
TGI (SNB-75 CNS): > 100 µM
GI50 (UO-31 renal): 64.4 µM
TGI (UO-31 renal): > 100 µM
GI50 (DU-145 prostate): > 100 µM
TGI (DU-145 prostate): > 100 µM
GI50 (T-47D breast): > 100 µM
TGI (T-47D breast): > 100 µM
GI50 (OVCAR-4 ovarian): > 100 µM
TGI (OVCAR-4 ovarian): > 100 µM
GI50 (SK-MEL-28 melanoma): > 100 µM
TGI (SK-MEL-28 melanoma): > 100 µM
GI50 (TK-10 renal): > 100 µM
TGI (TK-10 renal): > 100 µM
GI50 (HT29 colon): > 100 µM
TGI (HT29 colon): > 100 µM
GI50 (CAKI-1 renal): > 100 µM
TGI (CAKI-1 renal): > 100 µM
GI50 (HCT-15 colon): > 100 µM
TGI (HCT-15 colon): > 100 µM
GI50 (SF-268 CNS): > 100 µM
TGI (SF-268 CNS): > 100 µM
GI50 (M14 melanoma): > 100 µM
TGI (M14 melanoma): > 100 µM
